Values of other authors in paper PMC4361037 (Annals of neurology, 2014).

Tested on: HDAC3 versus HDAC1/2
Conditions: cited from earlier work

Nc1ccc(-c2cccs2)cc1NC(=O)CCCCCCNC(=O)c1cccnc1 [HDACi 233, N-[2-amino-5-(2-thienyl)phenyl]-7-nicotinoylamino-heptanamide]
selectivity (HDAC1/2) over HDAC3: > 200 fold
